In PubChem BioAssay AID1117263 (The Scripps Research Institute Molecular Screening Center, 2014):
This is a selection; strong and weak results do not stand in their true shares. Activity calls are given as the source filed them.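 Rule for the calls: active = mean inhibition of the replicates above the hit cutoff set in the primary screen (cut at about 17% in these data); inactive = the rest.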

The chains behind the UniProt entries cited, without tags or fusion partners.
UniProt Q9HAT2, whole entry: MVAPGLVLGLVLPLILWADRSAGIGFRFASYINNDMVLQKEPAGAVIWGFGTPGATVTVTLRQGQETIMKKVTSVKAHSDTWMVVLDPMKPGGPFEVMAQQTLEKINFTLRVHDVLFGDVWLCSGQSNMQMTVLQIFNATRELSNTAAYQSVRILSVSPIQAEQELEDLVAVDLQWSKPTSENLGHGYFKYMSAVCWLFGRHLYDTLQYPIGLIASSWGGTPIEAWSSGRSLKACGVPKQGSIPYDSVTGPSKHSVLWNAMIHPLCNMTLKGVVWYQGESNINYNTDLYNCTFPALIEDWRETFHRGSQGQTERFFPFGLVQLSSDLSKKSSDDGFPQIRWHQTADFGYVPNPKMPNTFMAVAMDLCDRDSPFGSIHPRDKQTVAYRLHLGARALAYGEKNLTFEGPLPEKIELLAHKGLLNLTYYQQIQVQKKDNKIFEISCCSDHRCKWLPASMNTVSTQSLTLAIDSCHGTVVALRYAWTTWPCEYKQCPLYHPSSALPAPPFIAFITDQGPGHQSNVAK

Each compound was assayed against Sialate O-acetylesterase (Homo sapiens) (UniProt Q9HAT2) (assay: sialate O-acetylesterase blockers re-tested – biochemical, fluorescence polarization, FP-Rh probe, triplicate, confirmation (AID 1117263;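 note: 0% = SIAE with DMSO and probe and 100% = probe without SIAE; inhibitors lower polarization as more probe stays unbound to SIAE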)). Settings: SIAE FP-Rh activity-based probe, at 9.66 µM, active compounds read high.
For CCC(c1nnnn1C1CCCC1)N1CCC(n2c(=O)[nH]c3ccccc32)CC1 (stereo unspecified), the inhibition was inactive: 4.88%.
